In patent US10821276B2, “System and method to locally deliver therapeutic agent to inner ear” (The Trustees of Columbia University in the City of New York, priority 2012, dated 2020):

Experiments:
[1] = Permeability of one pore estimated from diffusion coefficient and membrane thickness (P=D/h); 1% area perforation improvement; conditions: estimated from diffusion coefficient
Excerpt: From Fick's first law, diffusion is described by J=−D∇ϕ (1) where J is diffusion flux in mol/m^2*s, D is the diffusion coefficient in m^2/s, and ϕ is the concentration in mol/l. Then from a one-dimensional simplification of the pore
[formula] This can be further simplified with the gradient is uniform across the pore to obtain
[formula] where x is the axis through the pore in m, cx is the concentration at both ends in mol/l, and h is the RWM thickness in m. Then from the definition of flux
[formula] the permeability of the membrane is Flux=−PA(c1−c0) (5) where P=D/h is the permeability in m/s.
Thus the permeability of one pore can be estimated from the diffusion coefficient and the thickness of the membrane (10 μm, guinea pig).

[2] = intact RWM, previous studies; cited from earlier work

Gentamicin
Estimated Permeability KP PORE [1]: 6.82 10^−5 ms^−1 | Permeability KP RWM [2]: 5~35 10^−8 ms^−1
